# Source: publication PMC12836348, “Alanine Mutagenesis Identifies Specific Amino Acids of Nemertide Alpha‑1 Activity and Its Binding to Target Receptors” (Journal of Natural Products, 2025)
# Chains of the proteins cited; added tags and fusions are not shown.
# UniProt Q14524, whole entry: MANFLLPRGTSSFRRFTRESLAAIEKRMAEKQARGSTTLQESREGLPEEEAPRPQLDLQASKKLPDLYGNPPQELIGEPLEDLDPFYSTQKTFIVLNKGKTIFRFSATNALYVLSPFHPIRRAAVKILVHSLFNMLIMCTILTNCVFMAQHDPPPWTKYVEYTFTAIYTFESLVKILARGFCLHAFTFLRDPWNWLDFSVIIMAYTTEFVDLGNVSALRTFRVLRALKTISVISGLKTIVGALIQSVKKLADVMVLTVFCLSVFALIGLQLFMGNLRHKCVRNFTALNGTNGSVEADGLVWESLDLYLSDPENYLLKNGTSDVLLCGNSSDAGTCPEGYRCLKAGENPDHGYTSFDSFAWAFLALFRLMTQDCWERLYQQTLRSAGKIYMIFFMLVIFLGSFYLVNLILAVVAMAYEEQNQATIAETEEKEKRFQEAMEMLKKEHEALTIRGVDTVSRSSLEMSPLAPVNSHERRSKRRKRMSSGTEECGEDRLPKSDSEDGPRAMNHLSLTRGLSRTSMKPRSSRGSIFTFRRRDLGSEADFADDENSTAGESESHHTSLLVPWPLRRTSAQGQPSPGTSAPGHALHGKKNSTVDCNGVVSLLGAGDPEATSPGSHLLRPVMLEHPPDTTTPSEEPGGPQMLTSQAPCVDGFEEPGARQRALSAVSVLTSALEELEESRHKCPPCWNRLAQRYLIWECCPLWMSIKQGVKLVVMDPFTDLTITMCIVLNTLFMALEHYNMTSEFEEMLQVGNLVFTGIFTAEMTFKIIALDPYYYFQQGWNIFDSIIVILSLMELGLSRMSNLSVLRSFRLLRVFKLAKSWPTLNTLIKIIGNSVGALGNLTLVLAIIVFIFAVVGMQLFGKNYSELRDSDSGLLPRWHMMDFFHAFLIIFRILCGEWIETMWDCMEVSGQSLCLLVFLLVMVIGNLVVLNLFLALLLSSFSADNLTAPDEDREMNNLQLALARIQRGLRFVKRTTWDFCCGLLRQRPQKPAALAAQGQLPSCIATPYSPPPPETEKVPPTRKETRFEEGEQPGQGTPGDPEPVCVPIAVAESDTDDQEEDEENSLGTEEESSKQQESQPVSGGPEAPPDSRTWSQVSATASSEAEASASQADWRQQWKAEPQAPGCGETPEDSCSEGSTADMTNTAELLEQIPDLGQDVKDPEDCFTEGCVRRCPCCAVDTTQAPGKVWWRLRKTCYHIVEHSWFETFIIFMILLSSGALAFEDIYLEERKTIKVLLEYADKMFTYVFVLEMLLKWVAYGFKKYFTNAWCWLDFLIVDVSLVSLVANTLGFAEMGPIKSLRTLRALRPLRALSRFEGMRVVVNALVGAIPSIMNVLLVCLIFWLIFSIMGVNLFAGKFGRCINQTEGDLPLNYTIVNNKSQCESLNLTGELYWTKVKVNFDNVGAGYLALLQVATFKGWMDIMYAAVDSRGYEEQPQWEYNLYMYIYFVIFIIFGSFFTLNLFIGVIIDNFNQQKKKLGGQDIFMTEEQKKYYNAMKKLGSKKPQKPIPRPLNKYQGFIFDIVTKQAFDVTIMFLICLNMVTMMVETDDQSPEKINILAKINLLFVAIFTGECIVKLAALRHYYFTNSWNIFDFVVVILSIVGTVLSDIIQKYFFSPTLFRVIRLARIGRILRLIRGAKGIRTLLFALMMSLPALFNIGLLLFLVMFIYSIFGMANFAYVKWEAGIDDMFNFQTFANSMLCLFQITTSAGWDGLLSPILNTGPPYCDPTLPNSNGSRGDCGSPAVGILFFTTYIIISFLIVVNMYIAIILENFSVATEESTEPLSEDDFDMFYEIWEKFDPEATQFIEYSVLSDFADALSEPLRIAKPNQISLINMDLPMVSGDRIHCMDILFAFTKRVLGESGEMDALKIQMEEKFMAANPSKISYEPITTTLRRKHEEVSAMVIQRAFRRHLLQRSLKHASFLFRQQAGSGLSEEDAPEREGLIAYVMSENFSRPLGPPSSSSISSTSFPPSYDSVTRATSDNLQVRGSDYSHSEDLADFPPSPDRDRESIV
# Entries after “also recorded” stand apart in the source; their conditions may differ.
# Assays:
# BgNav1 = assay: Two-electrode voltage clamp, BgNav1 expressed in Xenopus laevis oocytes; assay type: cell-based, Blattella germanica; details: ex vivo, I30ms/Ipeak, Hill fit, n ≥ 3, highest tested concentration 50 μM
# hNaV1.5 = biological target: T1, hNaV1.5 (Homo sapiens, UniProt Q14524); assay: Two-electrode voltage clamp, Nav1.5 in Xenopus laevis oocytes; assay type: cell-based; details: ex vivo, two-electrode voltage clamp in Xenopus laevis oocytes, Hill fit, n ≥ 3; highest tested concentration 50 μM
# T1 construct: expressed in transfected cells; host or cells: Xenopus laevis oocytes (cRNA injection)
# Method: For the expression of NaV channels (hNav1.1, rNaV1.2, rNaV1.3, rNaV1.4, hNaV1.5, hNaV1.6, hNav1.7, and the insect channel BgNaV1) in Xenopus laevis oocytes, the linearized plasmids were transcribed using the T7 or SP6 mMESSAGE-mMACHINE transcription kit (Ambion, Carlsbad, CA, USA). The harvesting of stage V and VI oocytes from an anaesthetized female X. laevis frog was described previously. , Oocytes were injected with 50 nL of cRNA at a concentration of 1 ng/nL using a microinjector (Drummond Scientific, Broomall, PA, USA). The oocytes were incubated in a solution containing 96 mM NaCl, 2 mM KCl, 1.8 mM CaCl2, 2 mM MgCl2, and 5 mM HEPES (pH 7.4), supplemented with 50 mg/L gentamycin sulfate. Two-electrode voltage-clamp recordings were performed at room temperature (18–22 °C) using a Geneclamp 500 amplifier (Molecular Devices, Downingtown, PA, USA) controlled by a pClamp data acquisition system (Axon Instruments, Union City, CA, USA). Whole-cell currents from oocytes were recorded 1–4 days after injection. The bath solution composition was 96 mM NaCl, 2 mM KCl, 1.8 mM CaCl2, 2 mM MgCl2, and 5 mM HEPES (pH 7.4). Voltage and current electrodes were filled with 3 M KCl. The resistances of both electrodes were kept between 0.8 and 1.5 MΩ. The elicited Nav channel currents were filtered at 1 kHz and sampled at 20 kHz by using a four-pole low-pass Bessel filter. Leak subtraction was performed using a −P/4 protocol. For the electrophysiological analysis of toxins, a series of protocols was applied from a holding potential of −90 mV with a start-to-start interval of 0.2 Hz. Sodium current traces were evoked by 100 ms depolarizations to V max (the voltage corresponding to maximum sodium current in control conditions).
# To assess the concentration–response relationships, data were fitted with the Hill equation: y = 100/[1 + (EC50/[toxin])^ h ], where y is the amplitude of the toxin-induced effect (y = I 30 ms/I peak where I 30 ms is the current value at 30 ms in the presence of toxin and I peak is the peak current amplitude in control conditions), EC50 is the toxin concentration at half-maximal efficacy, [toxin] is the toxin concentration, and h is the Hill coefficient. Potassium and calcium currents were evoked by a 500 ms depolarization to the voltage corresponding to the maximal activation of the channels in control conditions from a holding potential of −90 mV. Elicited currents were sampled at 1 kHz and filtered at 0.5 kHz. For nAChR experiments, the oocytes were clamped at a holding potential of −70 mV and continuously superfused with ND96 via gravity-fed tubes at 0.1–0.2 mL min^–1, with 5 min incubation times for the bath-applied peptides. ACh was applied via gravity-fed tubes until a peak current amplitude was obtained (1–3 s), with 1–2 min washout periods between applications. The nAChR were gated by a particular time duration pulse of ACh for the respective nAChR subtype at 2 mL min^–1. Data were sampled at 500 Hz and filtered at 200 Hz. ASIC1a currents were measured in ND96 solutions at a pH of 7.4 and 4.5, at a holding potential of −70 mV during 400 s, and the data were filtered at 20 Hz. EnaC currents were measured by clamping oocytes at a holding potential of −60 mV and perfusing with low- (1 mM) and high- (96 mM) sodium ND96. Opioid currents were measured by clamping the potential to −70 mV and changing the perfusion solution from ND96 to high-potassium (HK) solution composed of 96 mM KCl, 2 mM NaCl, 1 mM MgCl2, 1.8 mM CaCl2, and 5 mM HEPES, with a final pH of 7.5. The HK-evoked increase in inward K^+ currents represents a “basal” K^+ current (IK, basal). In the presence of HK, 0.2 μM morphine was applied to oocytes and then washed out by HK. TRPV1 and TRPA1 currents were continuously monitored in a perfusing ND96 solution, following a protocol at −90 mV for 400 s. The sampling rate was set at 100 Hz, and the signals were filtered at 20 Hz. One μM capsaicin and 10 μM capsazepine were used for TRPV1. […]
smiles,measurement,setting,value
"CC[C@H](C)[C@@H]1NC(=O)[C@@H](NC(=O)CN)CSSC[C@@H]2NC(=O)[C@@H]3CSSC[C@@H](C(=O)N[C@@H](CC(N)=O)C(=O)N4C[C@H](O)C[C@H]4C(=O)N4C[C@H](O)C[C@H]4C(=O)N[C@@H](CC(N)=O)C(=O)N[C@@H](CCC(N)=O)C(=O)O)NC(=O)[C@H](CCCCN)NC(=O)[C@H](Cc4ccccc4)NC(=O)[C@H](CC(N)=O)NC(=O)[C@H](Cc4c[nH]c5ccccc45)NC(=O)CNC(=O)[C@H](CSSC[C@H](NC(=O)[C@H](Cc4ccccc4)NC(=O)[C@H](CO)NC(=O)CNC(=O)[C@H]([C@@H](C)O)NC(=O)[C@H](C)NC1=O)C(=O)N[C@@H]([C@@H](C)O)C(=O)N[C@@H](CC(C)C)C(=O)N[C@@H](CO)C(=O)N[C@@H](CCCCN)C(=O)NCC(=O)N3)NC(=O)[C@H](CC(N)=O)NC(=O)[C@H](CCCCN)NC(=O)[C@H]([C@@H](C)O)NC2=O [Alpha-1, nemertide alpha-1, reference compound]",EC50,BgNav1,8.6 ± 2.9 nM
same,EC50,BgNav1; listed as alpha-1,10.3 nM
CC[C@H](C)[C@@H]1NC(=O)[C@@H](NC(=O)CN)CSSC[C@@H]2NC(=O)[C@@H]3CSSC[C@@H](C(=O)N[C@@H](CC(N)=O)C(=O)N4C[C@H](O)C[C@H]4C(=O)N4C[C@H](O)C[C@H]4C(=O)N[C@@H](CC(N)=O)C(=O)N[C@@H](CCC(N)=O)C(=O)O)NC(=O)[C@H](CCCCN)NC(=O)[C@H](Cc4ccccc4)NC(=O)[C@H](CC(N)=O)NC(=O)[C@H](Cc4c[nH]c5ccccc45)NC(=O)CNC(=O)[C@H](CSSC[C@H](NC(=O)[C@H](C)NC(=O)[C@H](CO)NC(=O)CNC(=O)[C@H]([C@@H](C)O)NC(=O)[C@H](C)NC1=O)C(=O)N[C@@H]([C@@H](C)O)C(=O)N[C@@H](CC(C)C)C(=O)N[C@@H](CO)C(=O)N[C@@H](CCCCN)C(=O)NCC(=O)N3)NC(=O)[C@H](CC(N)=O)NC(=O)[C@H](CCCCN)NC(=O)[C@H]([C@@H](C)O)NC2=O [Peptide F8A],EC50,BgNav1,68.7 ± 12.8 nM
CC(C)C[C@@H]1NC(=O)[C@H]([C@@H](C)O)NC(=O)[C@@H]2CSSC[C@@H]3NC(=O)[C@H](CC(N)=O)NC(=O)[C@H](CCCCN)NC(=O)[C@H]([C@@H](C)O)NC(=O)[C@H](CSSC[C@H](NC(=O)CN)C(=O)N[C@@H](C)C(=O)N[C@@H](C)C(=O)N[C@@H]([C@@H](C)O)C(=O)NCC(=O)N[C@@H](CO)C(=O)N[C@@H](Cc4ccccc4)C(=O)N2)NC(=O)[C@H](CSSC[C@@H](C(=O)N[C@@H](CC(N)=O)C(=O)N2C[C@H](O)C[C@H]2C(=O)N2C[C@H](O)C[C@H]2C(=O)N[C@@H](CC(N)=O)C(=O)N[C@@H](CCC(N)=O)C(=O)O)NC(=O)[C@H](CCCCN)NC(=O)[C@H](Cc2ccccc2)NC(=O)[C@H](CC(N)=O)NC(=O)[C@H](Cc2c[nH]c4ccccc24)NC(=O)CNC3=O)NC(=O)CNC(=O)[C@H](CCCCN)NC(=O)[C@H](CO)NC1=O [Peptide I3A],EC50,BgNav1,49.7 ± 9.1 nM
CC[C@H](C)[C@@H]1NC(=O)[C@@H](NC(=O)CN)CSSC[C@@H]2NC(=O)[C@@H]3CSSC[C@@H](C(=O)N[C@@H](CC(N)=O)C(=O)N4C[C@H](O)C[C@H]4C(=O)N4C[C@H](O)C[C@H]4C(=O)N[C@@H](CC(N)=O)C(=O)N[C@@H](CCC(N)=O)C(=O)O)NC(=O)[C@H](CCCCN)NC(=O)[C@H](Cc4ccccc4)NC(=O)[C@H](CC(N)=O)NC(=O)[C@H](Cc4c[nH]c5ccccc45)NC(=O)CNC(=O)[C@H](CSSC[C@H](NC(=O)[C@H](Cc4ccccc4)NC(=O)[C@H](CO)NC(=O)CNC(=O)[C@H]([C@@H](C)O)NC(=O)[C@H](C)NC1=O)C(=O)N[C@@H]([C@@H](C)O)C(=O)N[C@@H](CC(C)C)C(=O)N[C@@H](CO)C(=O)N[C@@H](C)C(=O)NCC(=O)N3)NC(=O)[C@H](CC(N)=O)NC(=O)[C@H](CCCCN)NC(=O)[C@H]([C@@H](C)O)NC2=O [Peptide K13A],EC50,BgNav1,386 ± 32.4 nM
CC[C@H](C)[C@@H]1NC(=O)[C@@H](NC(=O)CN)CSSC[C@@H]2NC(=O)[C@@H]3CSSC[C@@H](C(=O)N[C@@H](CC(N)=O)C(=O)N4C[C@H](O)C[C@H]4C(=O)N4C[C@H](O)C[C@H]4C(=O)N[C@@H](CC(N)=O)C(=O)N[C@@H](CCC(N)=O)C(=O)O)NC(=O)[C@H](CCCCN)NC(=O)[C@H](Cc4ccccc4)NC(=O)[C@H](CC(N)=O)NC(=O)[C@H](Cc4c[nH]c5ccccc45)NC(=O)CNC(=O)[C@H](CSSC[C@H](NC(=O)[C@H](Cc4ccccc4)NC(=O)[C@H](CO)NC(=O)CNC(=O)[C@H]([C@@H](C)O)NC(=O)[C@H](C)NC1=O)C(=O)N[C@@H]([C@@H](C)O)C(=O)N[C@@H](CC(C)C)C(=O)N[C@@H](CO)C(=O)N[C@@H](CCCCN)C(=O)NCC(=O)N3)NC(=O)[C@H](CC(N)=O)NC(=O)[C@H](C)NC(=O)[C@H]([C@@H](C)O)NC2=O [Peptide K18A],EC50,BgNav1,32.9 ± 10.9 nM
CC[C@H](C)[C@@H]1NC(=O)[C@@H](NC(=O)CN)CSSC[C@@H]2NC(=O)[C@@H]3CSSC[C@@H](C(=O)N[C@@H](CC(N)=O)C(=O)N4C[C@H](O)C[C@H]4C(=O)N4C[C@H](O)C[C@H]4C(=O)N[C@@H](CC(N)=O)C(=O)N[C@@H](CCC(N)=O)C(=O)O)NC(=O)[C@H](C)NC(=O)[C@H](Cc4ccccc4)NC(=O)[C@H](CC(N)=O)NC(=O)[C@H](Cc4c[nH]c5ccccc45)NC(=O)CNC(=O)[C@H](CSSC[C@H](NC(=O)[C@H](Cc4ccccc4)NC(=O)[C@H](CO)NC(=O)CNC(=O)[C@H]([C@@H](C)O)NC(=O)[C@H](C)NC1=O)C(=O)N[C@@H]([C@@H](C)O)C(=O)N[C@@H](CC(C)C)C(=O)N[C@@H](CO)C(=O)N[C@@H](CCCCN)C(=O)NCC(=O)N3)NC(=O)[C@H](CC(N)=O)NC(=O)[C@H](CCCCN)NC(=O)[C@H]([C@@H](C)O)NC2=O [Peptide K25A],EC50,BgNav1,455 ± 69.4 nM
same,EC50 Nav1.5,hNaV1.5,no detectable activity; also recorded: inactive at the tested concentration
CC[C@H](C)[C@@H]1NC(=O)[C@@H](NC(=O)CN)CSSC[C@@H]2NC(=O)[C@@H]3CSSC[C@@H](C(=O)N[C@@H](CC(N)=O)C(=O)N4C[C@H](O)C[C@H]4C(=O)N4C[C@H](O)C[C@H]4C(=O)N[C@@H](CC(N)=O)C(=O)N[C@@H](CCC(N)=O)C(=O)O)NC(=O)[C@H](CCCCN)NC(=O)[C@H](Cc4ccccc4)NC(=O)[C@H](C)NC(=O)[C@H](Cc4c[nH]c5ccccc45)NC(=O)CNC(=O)[C@H](CSSC[C@H](NC(=O)[C@H](Cc4ccccc4)NC(=O)[C@H](CO)NC(=O)CNC(=O)[C@H]([C@@H](C)O)NC(=O)[C@H](C)NC1=O)C(=O)N[C@@H]([C@@H](C)O)C(=O)N[C@@H](CC(C)C)C(=O)N[C@@H](CO)C(=O)N[C@@H](CCCCN)C(=O)NCC(=O)N3)NC(=O)[C@H](CC(N)=O)NC(=O)[C@H](CCCCN)NC(=O)[C@H]([C@@H](C)O)NC2=O [Peptide N23A],EC50,BgNav1,19.5 ± 3.4 nM
